Test results from PubChem BioAssay AID493098 (Sanford-Burnham Center for Chemical Genomics, 2011).
The entries are a selection whose mix differs from that of the whole data set. Activity calls are given as the source filed them.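 Rule for the calls: active = compounds whose inhibition of the agonist-driven luminescence signal at 20 µM reaches about 50% (limit read from the data); inactive = the rest.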

By UniProt entry, the sequences of proteins in these tests, tags left out. Where a name states a change or a piece, a line headed by the entry shows the natural chain unless it says otherwise.
UniProt P51684: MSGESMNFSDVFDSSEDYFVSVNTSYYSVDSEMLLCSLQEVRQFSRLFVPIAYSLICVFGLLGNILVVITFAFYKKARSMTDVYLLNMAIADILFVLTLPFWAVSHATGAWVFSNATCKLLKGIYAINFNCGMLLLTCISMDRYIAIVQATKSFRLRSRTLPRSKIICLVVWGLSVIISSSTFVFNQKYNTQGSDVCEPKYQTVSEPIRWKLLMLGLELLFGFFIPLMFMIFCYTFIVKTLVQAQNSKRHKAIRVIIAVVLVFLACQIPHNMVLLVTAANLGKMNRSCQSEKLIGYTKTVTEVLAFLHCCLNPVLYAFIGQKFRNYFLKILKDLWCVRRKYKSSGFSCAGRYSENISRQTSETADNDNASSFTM

These compounds were tested against C-C chemokine receptor type 6 (Homo sapiens) (UniProt P51684) (assay: blockers of CCL20-driven beta-arrestin recruitment to CCR6 – cell-based, CHO-K1, luminescence, uHTS, primary screen (AID 493098;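 note: cells stimulated with CCL20 at 14 nM final; plate controls were DMSO with CCL20 for no effect and DMSO without agonist for full effect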)). Conditions: CHO-K1 CCR6 PathHunter beta-arrestin, CCL20-stimulated, at 20 µM, hits give high values.

Compound	inhibition
O=C(Nc1cc([As](=O)(O)O)ccc1O)c1ccccc1	inactive: -1.24%
O=P1(N(CCCl)CCCl)OCCCS1 (stereo not given)	inactive: 5.4%
O=C(O)CNc1ccc([As](=O)(O)O)cc1	inactive: -1.26%
O=[N+]([O-])c1cccc(NC2=NCC(CBr)S2)c1 (stereo not given)	inactive: 3.36%
COC(=O)C1(C)COP(=O)(Nc2ccccc2)OC1 (stereo not given)	inactive: 5.85%
O=[N+]([O-])c1ncn(CCn2ncnc2[N+](=O)[O-])n1	inactive: -5.07%
CC(C)(C)C(=O)NC(Sc1ccncn1)C(Cl)(Cl)Cl (stereo not given)	inactive: 4.77%
CCc1nc2c(n1)c1c(non1O)c1c2no[n+]1[O-]	inactive: 10.6%
O=[N+]([O-])c1cc([N+](=O)[O-])c(CCNc2ccccc2)c([N+](=O)[O-])c1	inactive: 13.8%
Cc1ccc(NP(=O)(Oc2ccccc2)Oc2ccccc2)nc1	inactive: 9.04%
O=[N+]([O-])c1cccc2n[nH]nc12	inactive: 4.03%
CC(=O)N1C2C3N(C(C)=O)C1C1N(C(C)=O)C(C(N1C(C)=O)N3C(C)=O)N2C(C)=O	inactive: 2.75%
COc1ccc(C2=NCC(CBr)S2)cc1 (stereo not given)	inactive: 8.5%
CC1CCN(C(=O)Oc2c(Cl)cc(Cl)c3cccnc23)CC1	inactive: 19.3%
CN(C)C(=O)OCCc1n(C)cc[n+]1C	inactive: -16.1%
CC(C)=N/N=C(\N)N[N+](=O)[O-]	inactive: 0.88%
CCN(/C(=N/P(=O)(N1CCOCC1)N1CCOCC1)N1CCOCC1)c1ccc(OC)cc1	inactive: -2.38%
C[N+]1=C2C=CC=CC=C2SC12C([N+](=O)[O-])=CC([N+](=O)[O-])=C[C-]2[N+](=O)[O-] (stereo not given)	active: 95%
Nc1ccc([As](=O)(O)c2ccc(N)cc2)cc1	inactive: 11.6%
Clc1ccc(Cl)c(NC2=NCC(CBr)S2)c1 (stereo not given)	inactive: 16.1%
CN1CCCC(OC(=O)C(c2ccccc2)c2ccccc2)C1 (stereo not given)	inactive: -9.28%
Cc1ccc(OP(=O)(Nc2nccs2)Oc2ccc(C)cc2)cc1	inactive: 13.2%

Compound	inhibition
COc1ccccc1OP(=O)(Nc1ccc(C)cn1)Oc1ccccc1OC	inactive: 1.74%
Cc1ccc(N/C(=N/P(=O)(N2CCOCC2)N2CCOCC2)N2CCOCC2)cc1	inactive: 2.17%
CN(C(=O)Cc1ccc(Cl)c(Cl)c1)[C@H]1CCCC[C@H]1N1CCCC1	inactive: 11.9%
NC(=O)c1cc([N+](=O)[O-])cc([N+](=O)[O-])c1N	inactive: -14.6%
O=C(NC(Sc1ccncn1)C(Cl)(Cl)Cl)c1ccccc1 (stereo not given)	inactive: -4.6%
Oc1ccccc1CNc1ccccn1	inactive: 0.27%
CC(C)CC(=O)NC(Sc1ccc(Cl)cc1)C(Cl)(Cl)Cl (stereo not given)	inactive: 12%
Nc1cc(N)c2nonc2c1[N+](=O)[O-]	inactive: -7.59%
Cc1ccc(NP(=O)(Oc2ccccc2F)Oc2ccccc2F)nc1	inactive: 4.76%
CN(C(=O)Cc1ccc(Cl)c(Cl)c1)[C@H]1CCCC[C@@H]1N1CCCC1	inactive: 8.5%
CCOP(=O)(Nc1ccccc1)OCC	inactive: 10.2%
Cc1cc(SC(NC(=O)c2ccc(F)cc2)C(Cl)(Cl)Cl)ncn1 (stereo not given)	inactive: -4.42%
O=P(Nc1nc2ccc(Cl)cc2s1)(c1ccccc1)c1ccccc1	inactive: 15.9%
CCCC1OP(N)(=O)OCC1CC (stereo not given)	inactive: 3.84%
O=C(O)c1ccccc1[As](=O)(O)O	inactive: 13.6%
CC(=O)Nc1ccc([As](=O)(O)O)cc1	inactive: -6.24%
Nc1cccc2ccc([As](=O)(O)O)cc12	inactive: -8.54%
CCN(N=Nc1nonc1N)c1nonc1N	inactive: 8.7%
O=P1(N(CCCl)CCCl)OCCC2CCCCN21 (stereo not given)	inactive: -0.53%
Cc1ccc(NP(=O)(Oc2cccc(C)c2)Oc2cccc(C)c2)nc1	inactive: 0.88%
c1ccc(-c2nn[nH]n2)c(-c2nn[nH]n2)c1	inactive: 12.7%
CCNC(=S)/N=C(\N)N[N+](=O)[O-]	inactive: 18.8%

Compound	inhibition
O=C(NC1CCS(=O)(=O)C1)NP(=S)(Oc1ccccc1)Oc1ccccc1 (stereo not given)	inactive: -7.01%
CN(C)C(=O)Oc1noc2ccccc12	inactive: 0.69%
O=c1c2cc([N+](=O)[O-])ccc2[nH]c2c([N+](=O)[O-])cc([N+](=O)[O-])cc12	active: 61.2%
Cc1ccccc1OP(=O)(Nc1ccccn1)Oc1ccccc1C	inactive: 16.1%
CC(NC(=O)COC(=O)C(O)(c1ccccc1)c1ccccc1)c1ccccc1 (stereo not given)	inactive: 12.1%
CCC(=O)N1C2C3N(C(=O)CC)C1C1N(C(=O)CC)C(C(N1C(=O)CC)N3C(=O)CC)N2C(=O)CC	inactive: -2.18%
O=C(OC1CN2CCC1CC2)c1ccccc1 (stereo not given)	inactive: 16%
Cc1ccc(OP(=O)(Nc2ccccn2)Oc2ccc(C)cc2)cc1	inactive: 1.48%
CC(=O)NC(SC(=S)N(CC(C)C)CC(C)C)C(Cl)(Cl)Cl (stereo not given)	inactive: 15%
COC(=O)c1cc2c(s1)N=C(c1ccccc1)N(C)P2(=O)N1CCOCC1 (stereo not given)	inactive: 20.2%
CC(C)(C)C(=O)NC(Sc1ccccc1)C(Cl)(Cl)Cl (stereo not given)	inactive: 7.65%
CCc1cc(O)c([N+](=O)[O-])c(C)c1[N+](=O)[O-]	inactive: 19.8%
CCOc1ccc(C2=NCC(CBr)S2)cc1 (stereo not given)	inactive: 0.71%
O=P1(Nc2nc3ccc(Cl)cc3s2)COc2ccccc2O1 (stereo not given)	inactive: -0.01%
CC(=O)Nc1ccc(Oc2c([N+](=O)[O-])cc([N+](=O)[O-])cc2[N+](=O)[O-])cc1	inactive: 20.1%
CC(=O)Nc1ccc([As](=O)(O)O)c(O)c1	inactive: -2.08%
C[C@@H]1C=CCP(=O)(Oc2ccccc2)O1 (stereo not given in full)	inactive: 2.7%
C[C@H]1OP(=O)(Oc2ccccc2)C[C@@H]2O[C@@H]21 (stereo not given in full)	inactive: 2.52%
Cc1ccccc1CN(C)C(=O)COC(=O)C(O)(c1ccccc1)c1ccccc1	inactive: 17.4%
COC(=O)C1(C)COP(=O)(NCc2ccccc2)OC1 (stereo not given)	inactive: 2.43%
N#C/C(=C\c1ccc(N(CCBr)CCBr)cc1)C(N)=O	inactive: 3.65%
